Reference: ChEMBL document CHEMBL1127483, “Synthesis and structure activity relationships of cis- and trans-2,3,4,4a,9,9a-hexahydro-1H-indeno[2,1-c]pyridines for 5-HT receptor subtypes” (J Med Chem, 1994)

By UniProt entry, the sequences of proteins in these tests, tags left out.
UniProt P28564, whole entry: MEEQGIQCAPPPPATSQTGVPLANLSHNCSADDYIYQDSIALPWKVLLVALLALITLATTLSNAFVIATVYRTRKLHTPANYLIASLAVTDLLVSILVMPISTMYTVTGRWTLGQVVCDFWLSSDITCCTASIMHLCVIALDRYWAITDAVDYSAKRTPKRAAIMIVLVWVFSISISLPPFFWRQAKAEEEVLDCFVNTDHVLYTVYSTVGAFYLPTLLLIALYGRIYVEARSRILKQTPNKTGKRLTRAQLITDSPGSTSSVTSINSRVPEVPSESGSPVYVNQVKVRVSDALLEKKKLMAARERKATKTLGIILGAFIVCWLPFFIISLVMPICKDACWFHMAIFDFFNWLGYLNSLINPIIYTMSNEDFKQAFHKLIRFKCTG

Biological target: 5-hydroxytryptamine receptor 1B (Rattus norvegicus, UniProt P28564)
Experiment: Inhibition of [3H]5-HT binding to 5-hydroxytryptamine 1B receptor
Outline: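 [3H]5-HT binding to 5-HT1 sites. The 5-HT1A component was distinguished by masking 5-HT1A sites with 1 µM S-spiroxatrine. Values are geometric means.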

CCCN(CCC)C1CCc2cccc(O)c2C1 (stereo unspecified) [8-OH-DPAT]
Ki: 2.57 µM
